Assay results from patent US8188074B2 (dated 2012).

Columns and labels:
[1] = applied topically, 5.79 μg (20 μl at 0.5 mM); light 25 J/cm^2; 24 hours post-light

In the case of “3,7-(tetra-n-butylamino)-phenothiazin-5-ium [Compound 2]”, the “uptake into E. coli cells, FIG. 9” value (E. coli; 10 μM, 30 minute incubation, cells washed twice) is reported as “taken up the most”, the “uptake into E. coli, incubation times of 5 minutes versus 30 minutes” value (E. coli; data not shown) is reported as “no differences in uptake” and the “skin reaction (increase in ear thickness), FIG. 17” value [1] is reported as “little or no reaction”.
